IC50 data for two compounds are collected here from the Kinase Knowledgebase extract (Sharma et al. 2016).

Chains of the proteins cited; added tags and fusions are not shown. Lines headed by an entry give the natural chain unless they say otherwise; changes in a name come on top.
UniProt P42338: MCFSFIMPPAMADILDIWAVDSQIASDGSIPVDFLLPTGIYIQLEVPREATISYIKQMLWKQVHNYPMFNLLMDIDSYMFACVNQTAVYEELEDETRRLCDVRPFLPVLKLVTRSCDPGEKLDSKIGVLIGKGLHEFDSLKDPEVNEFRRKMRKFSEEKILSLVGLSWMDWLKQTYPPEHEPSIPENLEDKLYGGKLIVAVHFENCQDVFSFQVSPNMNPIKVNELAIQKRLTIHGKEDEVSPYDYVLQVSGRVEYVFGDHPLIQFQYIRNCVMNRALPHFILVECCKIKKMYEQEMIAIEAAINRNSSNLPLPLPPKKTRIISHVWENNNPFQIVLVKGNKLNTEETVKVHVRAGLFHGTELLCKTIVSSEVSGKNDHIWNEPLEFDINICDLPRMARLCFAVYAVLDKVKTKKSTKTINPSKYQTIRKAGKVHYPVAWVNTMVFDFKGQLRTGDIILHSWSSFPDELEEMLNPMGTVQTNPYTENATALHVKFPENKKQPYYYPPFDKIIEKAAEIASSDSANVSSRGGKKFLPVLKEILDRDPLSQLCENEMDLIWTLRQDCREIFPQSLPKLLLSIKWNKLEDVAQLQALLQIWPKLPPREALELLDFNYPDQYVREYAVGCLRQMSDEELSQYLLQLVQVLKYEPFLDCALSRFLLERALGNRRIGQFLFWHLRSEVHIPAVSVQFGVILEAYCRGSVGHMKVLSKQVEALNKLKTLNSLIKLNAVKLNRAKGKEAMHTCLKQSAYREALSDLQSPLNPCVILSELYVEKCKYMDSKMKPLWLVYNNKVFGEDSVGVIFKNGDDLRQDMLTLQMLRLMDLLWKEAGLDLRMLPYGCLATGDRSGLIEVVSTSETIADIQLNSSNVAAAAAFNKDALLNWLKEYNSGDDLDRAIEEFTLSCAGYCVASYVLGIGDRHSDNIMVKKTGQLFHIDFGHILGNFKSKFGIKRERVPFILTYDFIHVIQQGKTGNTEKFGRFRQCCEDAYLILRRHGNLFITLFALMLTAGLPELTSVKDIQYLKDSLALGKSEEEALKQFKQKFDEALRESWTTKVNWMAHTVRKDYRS

This test deals with PIK3CB (Human) (UniProt P42338). Kind of test: Enzyme Assay.

For orientation: IC50 means the point on the concentration scale where inhibition reaches its midpoint. The compound `O=c1cc(N2CCOCC2)oc2c(-c3ccccc3)cccc12` came in with a concentration for half-maximal inhibition (IC50) of 11 µM.

Consider `Cc1cc(C(C)Nc2ccccc2)c2nc(N3CCOCC3)cc(=O)n2c1` (configuration not stated), for which the IC50 was 0.005 µM.
